Measured values as given in patent US10709790B2, “Chemical conjugates of Evans Blue derivatives and their use in the production of long-acting therapeutics” (THE UNITED STATES OF AMERICA, AS REPRESENTED BY THE …, priority 2015, dated 2020).

What was measured:
[1] = Dynamic small animal PET imaging, time activity curves over the heart region; settings: TACs over heart region, two-phase exponential fit, tail vein injection of 18F tracer
[2] = Ex vivo biodistribution in mice bearing subcutaneous INS-1 tumors; settings: 2 h after tracer injection, n = 4

Substance: Exendin-4
- tα1/2 [1]: 0.07 h
- Biodistribution, Blood, Mean [2]: 1.027 ID %/g
- Biodistribution, Bone, Mean [2]: 0.3805 ID %/g
- Biodistribution, Heart, Mean [2]: 0.5582 ID %/g
- Biodistribution, Liver, Mean [2]: 0.6143 ID %/g
- Biodistribution, Lung, Mean [2]: 2.571 ID %/g
- Biodistribution, Muscle, Mean [2]: 0.2618 ID %/g
- Biodistribution, Spleen, Mean [2]: 0.4688 ID %/g
- Biodistribution, intestin, Mean [2]: 0.9583 ID %/g
- Biodistribution, kidney, Mean [2]: 7.684 ID %/g
- Biodistribution, pancreas, Mean [2]: 2.737 ID %/g
- Biodistribution, stomach, Mean [2]: 1.218 ID %/g
- Biodistribution, Tumor, Mean ([2]; INS-1 tumor): 6.202 ID %/g
